Measured values as given in article PMC6792352, “Limited Chemical Structural Diversity Found to Modulate Thyroid Hormone Receptor in the Tox21 Chemical Library” (Environmental Health Perspectives, 2019).

Chains of the proteins cited; added tags and fusions are not shown. Residues count along the entry.
UniProt P10827, 163-410 isoform P10827-2 limits assumed: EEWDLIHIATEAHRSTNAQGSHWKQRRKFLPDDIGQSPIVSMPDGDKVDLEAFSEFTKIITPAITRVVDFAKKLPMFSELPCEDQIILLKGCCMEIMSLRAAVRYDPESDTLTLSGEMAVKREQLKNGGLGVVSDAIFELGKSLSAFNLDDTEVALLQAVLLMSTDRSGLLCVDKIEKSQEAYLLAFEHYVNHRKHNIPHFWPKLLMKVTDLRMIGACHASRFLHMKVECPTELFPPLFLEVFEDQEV

Assays:
[1] = target: T1, TRα ligand-binding domain (Homo sapiens, UniProt P10827); experiment: TRa-coa LanthaScreen TR-FRET coactivator (SRC-2 peptide) recruitment, agonist (TOX21_TRA_COA_Agonist_Followup_ratio, aeid 2230); assay type: biochemical; details: cell-free coactivator recruitment; read-out: TRa-coa-Ag AC50
T1 construct: the receptor LBDs expressed as glutathione S-transferase (GST) fusion proteins; purchased

[2] = target: T2, human TRβ ligand-binding domain (Homo sapiens, UniProt P10828); experiment: TRb-coa LanthaScreen TR-FRET coactivator (SRC-2 peptide) recruitment, agonist (TOX21_TRB_COA_Agonist_Followup_ratio, aeid 2244); assay type: biochemical; parameters: host or cells: GeneBLAzer UAS-bla HEK 293T; details: cell-free coactivator recruitment; read-out: TRb-coa-Ag AC50
T2 sequence (P10828 217-461 limits assumed): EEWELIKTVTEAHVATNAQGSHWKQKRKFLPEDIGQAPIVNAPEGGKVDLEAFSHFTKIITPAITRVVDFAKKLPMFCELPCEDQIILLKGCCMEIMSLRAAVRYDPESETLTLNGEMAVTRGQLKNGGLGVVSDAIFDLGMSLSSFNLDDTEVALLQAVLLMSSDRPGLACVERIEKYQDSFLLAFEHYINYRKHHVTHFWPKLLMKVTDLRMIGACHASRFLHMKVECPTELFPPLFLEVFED

[3] = target: T2, human TRβ ligand-binding domain; experiment: TRb-bla agonist mammalian one-hybrid beta-lactamase assay (TOX21_TRB_BLA_Agonist_Followup_ratio, aeid 2236)

Structure (SMILES): N[C@@H](Cc1ccc(Oc2cc(I)c(O)c(I)c2)c(I)c1)C(=O)O [3,3ʹ,5ʹ-Triiodo-L-thyronine]
- AC50 [1]: 707 nM
- AC50 [2]: 1000 nM
- AC50 [3]: 641 nM
